# Earlier results in US8986701B2, “Enzyme prodrug cancer therapy selectively targeted to tumor vasculature and methods of production and use thereof” (The Board of Regents of the University of Oklahoma, priority 2003, dated 2015).
# Legend:
# [1] = guinea pigs; cited from earlier work
# [2] = test system: human brain tumor xenografts; settings: cited from earlier work
substance,measurement,setting,value
L-methionine-α-deamino-γ-mercaptomethane-lyase [L-methioninase],immune response after injection,[1],shock and death
same,toxicity in the mice,[2],no toxicity
